# Binding of CDR-mutated scFvs to a peptide of the spike HR2 region

Source: Engelhart et al. 2022 (doi:10.1038/s41597-022-01779-4), MIT Lincoln Laboratory and A-Alpha Bio; data file from the FLAb repository.

Binding partner: SARS-CoV-2 spike HR2 peptide, sequence PDVDLGDISGINAS.

Ab-91 is the parent antibody, in scFv form: VL, then the linker GGGGSGGGGSGGGGS, then VH. The light chain is unchanged in all variants.
VL: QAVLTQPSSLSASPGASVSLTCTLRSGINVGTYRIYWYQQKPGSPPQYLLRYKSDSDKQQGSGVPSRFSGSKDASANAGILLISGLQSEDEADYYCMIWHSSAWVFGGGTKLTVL
VH: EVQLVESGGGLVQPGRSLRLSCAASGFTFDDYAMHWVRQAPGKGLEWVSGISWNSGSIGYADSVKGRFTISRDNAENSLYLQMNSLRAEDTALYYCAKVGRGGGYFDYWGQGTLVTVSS

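Library AAYL51 holds single substitutions and randomly drawn double and triple substitutions in the CDRs. Affinity was read by AlphaSeq, a pooled yeast mating assay with surface-displayed partners. After mating in shaken culture at 30 °C for 16 h, diploids were selected and their barcode pairs sequenced. Scores were corrected for input abundance and mapped to Kd with protein pairs of known affinity run in the same pool. Mating was done three times.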

Variants are written as CDR1, CDR2 and CDR3 of the heavy chain (limits as in the source). Parent: GFTFDDYAMH, GISWNSGSIGYADSVK, VGRGGGYFDY. Scale: log10 of Kd in nM, estimated from mating counts; low values are strong binders. A pair that was not seen in that replicate is written "n.d."; this usually means weak binding, but a binder can also be missed. For reference, the parent read 1.86 as the reference entry and 0.88 as a member of this library.

| CDR-H1 | CDR-H2 | CDR-H3 | log10 Kd, replicates | empty controls |
|---|---|---|---|---|
| NFTFDDYAMH | GISWNSGSIGYADSVI | VGNGGGYFDY | n.d. n.d. n.d. | 0/9 |
| GFTFDDYAMH | GISWNSDPIGYADSVK | VGRGYGYFDY | n.d. n.d. n.d. | 0/9 |
| GFTFKDYAMH | GISWNSGSIGYSDSVK | VGRGGGYKDY | n.d. n.d. n.d. | 0/9 |
| GFTFDDYAMH | GISWNSWSIEYADSVK | VGRGGGYFDY | 3.50 4.42 n.d. | 1/9 (2.67) |
| GFTGDDYAMH | GISWNSGSIGYHDQVK | VGRGGGYFDY | n.d. 5.02 n.d. | 0/9 |
| GFTFDDYAMH | GISWNTGSIGYADSVK | VGRGGGSFEY | 3.88 3.62 n.d. | 3/9 (4.18) |
| GFTFDDYAYH | GISWNSGSIGYADSVK | VGRGGGYFDY | 4.69 5.97 n.d. | 3/9 (3.92) |
| GFTFDDYAMH | GISWNSGSIMYAPSVK | VARGGGYFDY | 4.84 n.d. n.d. | 6/9 (4.54) |
| KFTFDDYAMH | GISWNSGSIGYHPSVK | VGRGGGYFDY | n.d. n.d. n.d. | 0/9 |
| GFTFDDYAMH | GIDWNSGSIGYADSKK | VGRGGGMFDY | 5.35 n.d. n.d. | 1/9 (5.74) |
| GFTFDDYAPH | GISWNSCSIGYADSVK | VGRGGTYFDY | n.d. n.d. n.d. | 0/9 |
| GFTFDDYAMH | GISRNSGSIGYADSVK | VGRGGVYFDY | n.d. n.d. n.d. | 0/9 |
| GFTFDDYCMH | GISWNSGSIGYADSVK | VGRGGHYFDP | n.d. n.d. n.d. | 4/9 (4.27) |
| GFTFDDYAMH | GISWNSPSIGYADSVK | VGRGGGYFLY | n.d. 4.01 n.d. | 1/9 (4.95) |
| GFTFDDYAMH | GISWNSGSIYYADSVK | VGRGWGYFDY | n.d. 3.73 n.d. | 1/9 (3.97) |
| GFTFRDYAMR | GISWPSGSIGYADSVK | VGRGGGYFDY | 4.34 4.34 n.d. | 4/9 (3.94) |
| GFTFDDYAMH | FISWNSGSRGYWDSVK | VGRGGGYFDY | n.d. n.d. n.d. | 3/9 (4.34) |
| GFTFDDYAMH | GISWTSGSIGYADDVK | VGRWGGYFDY | n.d. n.d. n.d. | 0/9 |
| DFTFDDYAMH | GISWNSGSIGYTASVK | VGRGGGYFDY | n.d. n.d. n.d. | 4/9 (3.94) |
| GFTFDDYAMH | GISWNSGSIGYADSVK | VGRGGGYFMY | n.d. n.d. n.d. | 0/9 |
| GFTFIDYAMH | KISWNSGSIGYADSVK | VGRAGGYFDY | 3.31 n.d. n.d. | 0/9 |
| GLTFDYYAMH | GISWNSGSIGYADSVK | VGRGGGYFWY | n.d. n.d. n.d. | 0/9 |
| GFTFDDYAMH | GISWNSGSIRYQDSVK | VGRGGRYFDY | n.d. n.d. 3.88 | 2/9 (4.87) |
| GFTFDDPAMH | GISWNSGSIGYADSVK | VGRGGGAPDY | n.d. n.d. n.d. | 0/9 |
| GFTFDDYAMH | GISWEKGPIGYADSVK | VGRGGGYFDY | 4.26 n.d. n.d. | 1/9 (3.88) |
| GFTFDDYAMH | TISWNEGSIGYADSVK | VGRRGGYFDY | n.d. n.d. n.d. | 0/9 |
| GFPFDDYAMH | GISWNSGSIGYADSVK | VTRGGGYFDY | n.d. n.d. n.d. | 2/9 (4.67) |
| GFTFDKYAMH | GISWNSISIGSADSVK | VGRGGGYFDY | 3.57 3.55 3.56 | 4/9 (4.63) |
| GFTFDDYLMH | GISWMSGSIGYADSVK | LGRGGGYFDY | 3.56 n.d. n.d. | 0/9 |
| GFTFDDYAMH | GISWNSGSIGYWDSVK | MGRGGGYFDY | n.d. 5.93 4.56 | 3/9 (4.53) |
| GFTFDGYAMF | GISWNSGSIGYADSVK | VGRGGGYFDL | n.d. 3.50 n.d. | 3/9 (5.44) |
| GFTFDDYAHH | GISQNSGSIGYADSVS | VGRGGGYFDY | n.d. n.d. n.d. | 0/9 |
| GFTFDDYAMH | GICVNSLSIGYADSVK | VGRGGGYFDY | n.d. n.d. n.d. | 1/9 (4.20) |
| GFTFDDYAMH | GISWPSGSIGYEDSVK | VGRGGYYFDY | 4.68 n.d. 4.92 | 2/9 (4.72) |
| GFTFEDYTMH | GISWNSGSISYADSVK | VGRGGGYFDY | n.d. 4.50 5.46 | 3/9 (4.62) |
| GFTFFDQAMH | GISWNSGSISYADSVK | VGRGGGYFDY | 4.35 6.53 5.54 | 3/9 (4.35) |
| GFTFDDYAMH | GISNNSGSIGYADSGK | VGRGGGYFDY | n.d. n.d. 3.61 | 3/9 (4.65) |
| GFTHDDYRMH | GISWNSGSIGKADSVK | VGRGGGYFDY | n.d. n.d. 4.08 | 2/9 (4.76) |
| GFTFDEYAMH | GISWNSGSIGYADSRK | VGRGGGYHDY | n.d. n.d. n.d. | 0/9 |
| GFTFDDYAMH | GISWNVGSIGYADSVK | VGRGWGHFDY | 5.15 n.d. n.d. | 6/9 (5.37) |
| GFAFDDYAMH | GISWNSGSIGYADSVK | VGPGGGYFDG | 2.10 2.91 1.21 | 0/9 |
| GFTFDDYAWH | GIPWNSGSIGYADLVK | VGRGGGYFDY | 3.71 n.d. 3.88 | 0/9 |
| GFTFDDYAMG | GISWNSGSIGYADSVK | VGSGGGYFDY | 4.26 n.d. n.d. | 1/9 (5.34) |
| GFTFDDYAMP | GSSWNSGSIGYADSVP | VGRGGGYFDY | 4.97 n.d. n.d. | 0/9 |
| GFTFDDYAMH | GISWNSGSYGYASSVK | VGLGGGYFDY | n.d. 5.58 n.d. | 4/9 (4.53) |
| GFTFDDYAMY | GISRNSGSIGYADSVK | VGRGGGYFGY | 4.88 n.d. n.d. | 1/9 (4.05) |
| GFTFDDIADH | GISWNSGSIGYARSVK | VGRGGGYFDY | n.d. n.d. n.d. | 0/9 |
| GFTYDDYAMH | GISWNSGSISYADSVK | VFRGGGYFDY | n.d. n.d. n.d. | 0/9 |
| GFTFDDYAMH | GISWNSGSIGYADSVK | WGRGGGYFLA | n.d. n.d. n.d. | 1/9 (2.88) |
| GFTFDDYAMH | GISWNSGSIGYADSNK | VGRGGIYFDF | n.d. n.d. n.d. | 0/9 |
| GFTFRDYAMH | GISWNSGSIGYADSLK | VGRGGGYFMY | n.d. 3.87 n.d. | 1/9 (3.16) |

Excerpt, the first 7 entries:

CDR-H1	CDR-H2	CDR-H3	log10 Kd, replicates	empty controls
NFTFDDYAMH	GISWNSGSIGYADSVI	VGNGGGYFDY	n.d. n.d. n.d.	0/9
GFTFDDYAMH	GISWNSDPIGYADSVK	VGRGYGYFDY	n.d. n.d. n.d.	0/9
GFTFKDYAMH	GISWNSGSIGYSDSVK	VGRGGGYKDY	n.d. n.d. n.d.	0/9
GFTFDDYAMH	GISWNSWSIEYADSVK	VGRGGGYFDY	3.50 4.42 n.d.	1/9 (2.67)
GFTGDDYAMH	GISWNSGSIGYHDQVK	VGRGGGYFDY	n.d. 5.02 n.d.	0/9
GFTFDDYAMH	GISWNTGSIGYADSVK	VGRGGGSFEY	3.88 3.62 n.d.	3/9 (4.18)
GFTFDDYAYH	GISWNSGSIGYADSVK	VGRGGGYFDY	4.69 5.97 n.d.	3/9 (3.92)

Three control strains display no target. For library AAYL51, 21% of the pairings with them gave a signal, with a median of 4.54 and one signal in twenty below 3.26, so weak values seen in few replicates may be background. The control count says in how many pairings with the empty strains this scFv gave a signal, with their mean in brackets.